Assay results reported in article PMC5085626, “Characterization of a β-Adrenergic-Like Octopamine Receptor in the Oriental Fruit Fly, Bactrocera dorsalis (Hendel)” (International Journal of Molecular Sciences, 2016).

Protein sequences, listed by entry. Tags and fused reporters are not part of them.
UniProt A0ABM3J3U4, entry or part of it: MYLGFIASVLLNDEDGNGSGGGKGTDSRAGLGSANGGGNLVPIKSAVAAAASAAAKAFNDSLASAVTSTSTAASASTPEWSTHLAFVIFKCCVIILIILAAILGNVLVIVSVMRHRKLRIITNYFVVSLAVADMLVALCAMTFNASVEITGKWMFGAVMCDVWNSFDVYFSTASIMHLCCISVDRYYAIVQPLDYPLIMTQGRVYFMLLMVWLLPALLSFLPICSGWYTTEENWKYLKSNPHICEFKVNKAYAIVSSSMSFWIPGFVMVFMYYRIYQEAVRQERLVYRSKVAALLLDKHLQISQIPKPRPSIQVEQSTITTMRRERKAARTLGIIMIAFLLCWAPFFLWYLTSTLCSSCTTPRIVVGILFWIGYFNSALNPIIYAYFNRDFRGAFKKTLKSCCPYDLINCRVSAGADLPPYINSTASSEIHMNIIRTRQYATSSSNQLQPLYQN

Molecular target: BdOctβR1 (Bactrocera dorsalis, UniProt A0ABM3J3U4)

**Q.** Which “antagonistic activity (in words)” value does the source give for `CN1CCN2c3ccccc3Cc3ccccc3C2C1` (stereo not shown) [mianserin, mianserin hydrochloride] here?
**A.** The value was “significant antagonistic activity”.

Where a name gives a salt, the structure may show the parent alone.
